From US20250099433A1, “COMPOSITION AND METHOD FOR TREATMENT OF GRAM NEGATIVE BACTERIAL INFECTION” (The Research Foundation for the State University of New York, priority 2021, published 2025)

Protein sequences, listed by entry. Tags and fused reporters are not part of them. Residues count along the entry.
UniProt P47205, 1-299: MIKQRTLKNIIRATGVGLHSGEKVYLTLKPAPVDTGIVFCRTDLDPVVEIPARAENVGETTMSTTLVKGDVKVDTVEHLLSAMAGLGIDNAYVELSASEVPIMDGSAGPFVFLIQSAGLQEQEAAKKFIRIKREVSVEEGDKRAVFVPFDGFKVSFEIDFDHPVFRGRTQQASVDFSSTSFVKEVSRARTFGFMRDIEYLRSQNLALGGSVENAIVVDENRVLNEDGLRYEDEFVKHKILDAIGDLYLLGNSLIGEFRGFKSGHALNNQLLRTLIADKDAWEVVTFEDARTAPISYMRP

Columns and labels:
paLpxC [1] = biological target: T1, paLpxC (Pseudomonas aeruginosa (strain ATCC 15692 / DSM 22644 / CIP 104116 / JCM 14847 / LMG 12228 / 1C / PRS 101 / PAO1), UniProt P47205); test: Spin column (Penefsky) residence time assay on paLpxC; type: binding; details: 37° C., first-order fit
Experimental: FIG. 14. Spin-column assay. A spin-column assay was used to quantify the residence time of inhibitors on paLpxC at 37° C. […] Samples were then subjected to size exclusion chromatography at different times using a Spin-Trap G-25 column (800×g for 2 min). […] Preincubated solutions of enzyme (10 μM) and inhibitor (10 or 20 μM) were diluted 200-fold into a solution of PT855 (1 μM) at 37° C. Aliquots of this solution were withdrawn at various times and subjected to centrifugal gel filtration chromatography using PD SpinTrap™ G-25 columns. The fluorescence of the eluate was quantified, and the data were fit to a single exponential equation to obtain koff (FIG. 14, Tables 4 and 5).
Inhibitor Residence Time Measurements using a Spin Column Assay. […] Subsequently, 10 μL of the incubation mixture was diluted into 2 mL of the same buffer containing 1 μM of PT855, and 100 μL of this mixture was then aliquoted at different time points and loaded onto a PD SpinTrap™ G-25 column (Cytiva) that had been equilibrated with buffer prior to sample loading. […] The fluorescence intensities corresponding to loading diluted EI without the fluorescent competitor and loading the competitor alone were measured separately to determine the dynamic range and endpoint of the assay. […] Rates were calculated by fitting the change in fluorescence intensity over time to a one-phase association equation in GraphPad Prism.

paLpxC [2] = biological target: T1, paLpxC; type: binding; details: for tR (min) Fluorescence assay: 37° C., tR = 1/koff; for ΔF as % of the change when free enzyme was added: EI complex diluted into 200 nM PT855

Structure (SMILES) | k (min^−1), spin-column assay (paLpxC [1]) | tR (min) Fluorescence assay (paLpxC [2]) | tR (min) Fluorescence assay (paLpxC [2]; listed as PT91) | ΔF as % of the change when free enzyme was added (paLpxC [2])
CC(CCn1ccc(-c2ccccc2)cc1=O)(C(=O)NO)S(C)(=O)=O (racemic) [PT901, N-hydroxy-2-methyl-2-(methylsulfonyl)-4-(2-oxo-4-phenylpyridin-1(2H)-yl)butanamide] | 0.14 ± 0.06 min⁻¹ | 5 min and 5.1 ± 0.2 min and 5.0 ± 0.2 min | 5.1 min | ~98%
COc1ccc(-c2ccn(CCC(C)(C(=O)NO)S(C)(=O)=O)c(=O)c2)cc1 (racemic) [PT902, N-hydroxy-4-(4-(4-methoxyphenyl)-2-oxopyridin-1(2H)-yl)-2-methyl-2-(methylsulfonyl)butanamide] | – | 15 min and 15.0 ± 1.5 min | – | 52%

Several values for one entry are separate records, joined by “and”; a condition that tells them apart may be missing. Identical values can stand only once. Like-named read-outs stand apart in the source and are kept apart here.
